# Yeast mating assay B: variants of the scFv Ab-14

The measurements come from Li et al. 2023 (doi:10.1038/s41467-023-39022-2) through the FLAb antibody collection.

Target peptide (SARS-CoV-2 spike, HR2 region): PDVDLGDISGINAS

Parent: Ab-14, a human scFv built as VH, the linker GGGGSGGGGSGGGGS, VL. Only the CDRs of the heavy chain vary.
VH: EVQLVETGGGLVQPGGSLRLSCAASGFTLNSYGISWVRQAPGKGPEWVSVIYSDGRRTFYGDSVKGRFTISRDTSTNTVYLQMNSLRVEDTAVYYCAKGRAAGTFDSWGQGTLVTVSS
VL: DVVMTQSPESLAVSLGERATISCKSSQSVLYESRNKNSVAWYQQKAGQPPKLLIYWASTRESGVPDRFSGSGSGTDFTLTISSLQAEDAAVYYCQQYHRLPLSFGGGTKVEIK

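The variants were designed computationally from a first round of random CDR variants and then made and measured. Group labels follow the data file (Rand: our label for a block that the file lists under HC and that is probably the random mutants of the ten best first-round binders; En: ensemble of fine-tuned language models; HC: hill climbing; Gen: genetic algorithm; Gibbs: Gibbs sampling; a sequence that several methods proposed may carry one label only). Affinity was read by AlphaSeq, a pooled yeast mating assay with surface-displayed partners. Pairs that bind mate more often; barcode pairs of the diploids are counted by sequencing. Read counts were normalised to the haploid input and turned into Kd by a linear fit to BCL2-family pairs of known affinity, for each replicate. Each pool was mated in six replicate cultures.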

Each variant's VH is given in full. Variants here have more than six changes. The Kd shown is the geometric mean over detected replicates; a lower Kd is a better binder. "nd" means that the variant was in the library but no mating with the target was seen in any replicate; the authors take this as a sign of poor binding, and no number exists.

| VH | group | apparent Kd | detected |
|---|---|---|---|
| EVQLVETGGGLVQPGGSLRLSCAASGFSIDEYGISWVRQAPGKGPEWVSVIYADGTRTAVATSVKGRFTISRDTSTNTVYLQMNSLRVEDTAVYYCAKGQLVAYFDKWGQGTLVTVSS | En_Gibbs | nd | 0/6 |
| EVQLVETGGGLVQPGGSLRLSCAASGFDLNEYGISWVRQAPGKGPEWVSVIYADGMRTQYIDSVKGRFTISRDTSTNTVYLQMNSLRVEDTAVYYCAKGNAAGTFDFWGQGTLVTVSS | En_HC | 910 pM | 6/6 |
| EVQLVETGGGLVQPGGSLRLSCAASGFDLNEYGISWVRQAPGKGPEWVSVIYADGMRTAYADDVKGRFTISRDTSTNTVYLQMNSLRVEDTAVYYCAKGNVAGTFDVWGQGTLVTVSS | En_Gen | 270 pM | 6/6 |
| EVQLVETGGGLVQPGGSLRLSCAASGFDLNEYGISWVRQAPGKGPEWVSVIYADGVRTAYKDSVKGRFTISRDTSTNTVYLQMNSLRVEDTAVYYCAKGNVAGTFDVWGQGTLVTVSS | En_Gen | 1.2 nM | 6/6 |
| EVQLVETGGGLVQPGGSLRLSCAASGFSLEDYGISWVRQAPGKGPEWVSVIYADGVRTAYVNAVKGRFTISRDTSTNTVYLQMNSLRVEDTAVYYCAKGTWGATILGWGQGTLVTVSS | En_Gibbs | nd | 0/6 |
| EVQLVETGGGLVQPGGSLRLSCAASGFDLNEYGISWVRQAPGKGPEWVSVIYADGMRTAYSDNVKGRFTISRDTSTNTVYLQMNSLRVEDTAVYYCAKGEVAGTFDMWGQGTLVTVSS | En_Gen | 560 pM | 6/6 |
| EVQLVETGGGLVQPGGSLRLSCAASGFDLNEYGISWVRQAPGKGPEWVSVIYADGRRTFYADSVKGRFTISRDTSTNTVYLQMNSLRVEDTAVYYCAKGEFAGTFDMWGQGTLVTVSS | En_HC | 440 pM | 6/6 |
| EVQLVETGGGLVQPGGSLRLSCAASGFDLNEYGISWVRQAPGKGPEWVSVIYADGMRTAYVDDVKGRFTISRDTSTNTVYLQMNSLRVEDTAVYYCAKGNEAGTFDVWGQGTLVTVSS | En_Gen | 580 pM | 6/6 |
| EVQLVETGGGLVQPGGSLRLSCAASGFDLNEYGISWVRQAPGKGPEWVSVIYADGKRTAYADDVKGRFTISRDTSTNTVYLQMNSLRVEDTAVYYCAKGETAGTFDLWGQGTLVTVSS | En_Gen | 80 pM | 6/6 |
| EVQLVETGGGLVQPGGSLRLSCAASGQQLDEYGISWVRQAPGKGPEWVSVIYADGVRSSYVDSVKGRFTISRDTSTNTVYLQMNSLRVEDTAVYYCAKGEITGTFSQWGQGTLVTVSS | En_Gibbs | nd | 0/6 |
| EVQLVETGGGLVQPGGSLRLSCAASGFNLDEYGISWVRQAPGKGPEWVSVIYADGMRTAYADSVKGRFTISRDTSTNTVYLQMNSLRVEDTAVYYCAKGQNAGTFDVWGQGTLVTVSS | En_Gen | 450 pM | 6/6 |
| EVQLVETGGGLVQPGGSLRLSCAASGFDLEEYGISWVRQAPGKGPEWVSVIYADGKRTAYADSVKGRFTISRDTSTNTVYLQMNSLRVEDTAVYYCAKGNVAGTFDIWGQGTLVTVSS | En_Gen | 280 pM | 5/6 |
| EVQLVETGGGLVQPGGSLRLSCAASGFDLNEYGISWVRQAPGKGPEWVSVIYADGVRTFYVDSVKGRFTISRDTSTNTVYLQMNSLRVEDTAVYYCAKGESAGTFDTWGQGTLVTVSS | En_HC | 220 pM | 6/6 |
| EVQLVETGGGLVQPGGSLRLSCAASGFDLNEYGISWVRQAPGKGPEWVSVIYADGVRKAYADSVKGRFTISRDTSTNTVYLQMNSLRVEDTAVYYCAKGNNAGTFDIWGQGTLVTVSS | En_Gen | 380 pM | 6/6 |
| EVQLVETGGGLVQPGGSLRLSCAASGFDLNEYGISWVRQAPGKGPEWVSVIYADGRRTQYIDSVKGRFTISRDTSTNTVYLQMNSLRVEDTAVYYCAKGETAGTFDMWGQGTLVTVSS | En_HC | 1.3 nM | 6/6 |
| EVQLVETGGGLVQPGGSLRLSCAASGFTWDSYGISWVRQAPGKGPEWVSVIYSDGHRLFYGDSVKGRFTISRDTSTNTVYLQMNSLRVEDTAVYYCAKCRAAGTALAWGQGTLVTVSS | Rand | nd | 0/6 |
| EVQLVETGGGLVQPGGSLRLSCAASGEVLDEYGISWVRQAPGKGPEWVSVIYADGSRVQYTDAVKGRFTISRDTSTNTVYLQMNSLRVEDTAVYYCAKGLLTGAFDMWGQGTLVTVSS | En_Gibbs | nd | 0/6 |
| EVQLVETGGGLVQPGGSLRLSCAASGFDLNEYGISWVRQAPGKGPEWVSVIYADGRRTFYADSVKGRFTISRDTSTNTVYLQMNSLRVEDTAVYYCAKGQVAGTFTLWGQGTLVTVSS | En_HC | 490 pM | 6/6 |
| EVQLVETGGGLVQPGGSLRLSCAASGFNLNEYGISWVRQAPGKGPEWVSVIYADGRRTFYADSVKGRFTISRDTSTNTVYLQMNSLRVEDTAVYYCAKGGDAGTFDVWGQGTLVTVSS | En_HC | 7.1 nM | 6/6 |

Top 3 of the variants detected in all replicates, tightest first:

| VH | group | apparent Kd | detected |
|---|---|---|---|
| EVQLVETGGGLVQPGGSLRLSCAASGFDLNEYGISWVRQAPGKGPEWVSVIYADGKRTAYADDVKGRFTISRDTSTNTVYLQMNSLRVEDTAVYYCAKGETAGTFDLWGQGTLVTVSS | En_Gen | 80 pM | 6/6 |
| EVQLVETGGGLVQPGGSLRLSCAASGFDLNEYGISWVRQAPGKGPEWVSVIYADGVRTFYVDSVKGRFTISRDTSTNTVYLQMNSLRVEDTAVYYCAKGESAGTFDTWGQGTLVTVSS | En_HC | 220 pM | 6/6 |
| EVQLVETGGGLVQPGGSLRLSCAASGFDLNEYGISWVRQAPGKGPEWVSVIYADGMRTAYADDVKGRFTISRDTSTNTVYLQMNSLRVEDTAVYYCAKGNVAGTFDVWGQGTLVTVSS | En_Gen | 270 pM | 6/6 |

The parent sequence was in this pool as ten entries: three were never detected, three once, and four in most replicates, with averages from 2.2 nM to 240 nM. Three control strains display no target. For all heavy chain designs, 1% of the pairings with them gave a signal, with a median of 120 nM and one signal in twenty below 7.0 nM, so weak values seen in few replicates may be background. A sequence measured in both rounds can read differently, since the two assays cover different ranges. The authors' rule: three or more of the six replicates give a measured affinity, fewer mean a poor binder.